Consider two compounds from patent US20140336182A1, “Aurora Kinase Modulators and Method of Use” (Amgen Inc., priority 2013, published 2014).

Sequences of proteins named here, by UniProt entry; tags and fusion partners are left off.
UniProt Q96GD4, whole entry: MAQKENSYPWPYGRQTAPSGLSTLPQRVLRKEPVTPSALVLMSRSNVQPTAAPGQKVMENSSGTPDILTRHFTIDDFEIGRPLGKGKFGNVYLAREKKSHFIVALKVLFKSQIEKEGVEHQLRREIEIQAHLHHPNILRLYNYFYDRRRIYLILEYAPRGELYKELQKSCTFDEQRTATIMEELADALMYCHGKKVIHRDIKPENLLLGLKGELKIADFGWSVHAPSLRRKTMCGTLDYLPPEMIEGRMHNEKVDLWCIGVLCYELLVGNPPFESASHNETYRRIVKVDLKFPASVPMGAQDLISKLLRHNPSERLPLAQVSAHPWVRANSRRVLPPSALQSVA

In one experiment the test system is HeLa cells. Briefly: HeLa cell 24 hr ploidy assay (DNA content). To be noted: read-out: 24h_4NPloidy EC50_IP (uM Avg), 4N ploidy, average.
A further experiment concerns the target AuroraB (Homo sapiens, UniProt Q96GD4). Briefly: AuroraB Homogeneous Time Resolved Fluorescent (HTRF) kinase assay. To be noted: read-out: AurB_IC50_IP (uM Avg); average. For orientation: TR-FRET usually uses a lanthanide donor and a delayed reading to cut background.

With `COc1cnc2c(Sc3ccc(Nc4nnc(N5CCOCC5)c5ccccc45)cc3)ccnc2c1`, the EC50 in the experiment on HeLa cells is 0.025 µM. For the same compound, the IC50 at AuroraB is 0.032 µM.

As to `COc1cnc2c(Sc3ccc(Nc4nnc(-c5ccc(Cl)cc5)c5ccccc45)cn3)ccnc2c1`, the EC50 with HeLa cells was 0.011 µM. Besides, the IC50 on AuroraB was found to be 0.026 µM.
